Experimental data from ChEMBL document CHEMBL4725348, “Rational Design and Evaluation of 6-(Pyrimidin-2-ylamino)-3,4-dihydroquinoxalin-2(1H)-ones as Polypharmacological Inhibitors of BET and Kinases” (J Med Chem, 2020).

Molecular target: T1, Aurora kinase A (Homo sapiens) (UniProt O14965)
T1 sequence (whole entry): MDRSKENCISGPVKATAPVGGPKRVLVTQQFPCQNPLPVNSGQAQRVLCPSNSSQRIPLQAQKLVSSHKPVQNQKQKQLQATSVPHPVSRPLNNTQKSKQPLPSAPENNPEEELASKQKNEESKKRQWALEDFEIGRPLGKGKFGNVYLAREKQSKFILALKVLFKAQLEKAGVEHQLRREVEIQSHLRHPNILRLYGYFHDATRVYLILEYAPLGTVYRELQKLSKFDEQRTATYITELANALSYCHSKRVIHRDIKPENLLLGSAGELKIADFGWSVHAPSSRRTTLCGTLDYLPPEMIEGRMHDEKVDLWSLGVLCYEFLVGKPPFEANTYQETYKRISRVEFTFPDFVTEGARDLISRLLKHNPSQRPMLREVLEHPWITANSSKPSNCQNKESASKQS
Assay: Inhibition AuroraA (unknown origin) at 1 uM relative to control

inhibition: 67.4%
Structure (SMILES): CC(C)N1c2cc(Nc3nccc(-c4ccccc4)n3)ccc2N(C)C(=O)[C@H]1C
